Measured values reported in patent US9364465B2, “Thiazolidinediones of omega-3 polyunsaturated acids as new insulin sensitizers for treating type2 diabetes” (Jiva Pharma, Inc., priority 2013, dated 2016).

Chains of the proteins cited; added tags and fusions are not shown. Residues count along the entry.
UniProt P37231, 238-503 limits assumed, species assumed: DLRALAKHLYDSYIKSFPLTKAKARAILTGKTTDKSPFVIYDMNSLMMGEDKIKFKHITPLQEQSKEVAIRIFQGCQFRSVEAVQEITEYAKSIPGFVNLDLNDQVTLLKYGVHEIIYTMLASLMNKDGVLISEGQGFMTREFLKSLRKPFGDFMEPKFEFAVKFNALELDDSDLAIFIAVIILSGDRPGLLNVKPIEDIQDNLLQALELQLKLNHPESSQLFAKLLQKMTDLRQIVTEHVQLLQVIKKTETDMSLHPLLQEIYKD

Target: T1, PPARγ (Homo sapiens, UniProt P37231)
T1 construct: expressed in transfected cells
Assay: cell-based chimeric receptor transcription assay (PPAR ligand binding domain fused to GAL4 DNA binding domain, GAL4-regulated luciferase reporter)
Conditions: for average luciferase values from transcription assay: * above background
Method: To determine if these compounds can activate PPARγ or the members of the PPAR family of nuclear receptors (PPARα and PPARδ), the ability of these compounds to activate PPAR receptors in a cell-based chimeric receptor transcription assay were tested. This is a standard nuclear receptor ligand activity assay that utilizes the ligand binding domain of the PPAR receptor fused to a heterologous GAL4 DNA binding domain. The transcriptional read-out is from a GAL4-regulated luciferase reporter. In this assay, compounds that activate the receptor cause an increase in luciferase activity measured in a luminometer. The data are shown in Table 1 below (average luciferase values from transcription assay).

## CN(CCOc1ccc(CC2SC(=O)NC2=O)cc1)c1ccccn1 (racemic) [Rosiglitazone, (RS)-5-[4-(2-[methyl(pyridine-2-yl)amino]ethoxy)benzyl]thiazolidine-2,4-dione, reference compound]
0.01 μM conc.
  average luciferase values from transcription assay: 482*
0.03 μM conc.
  average luciferase values from transcription assay: 1205*
0.08 μM conc.
  average luciferase values from transcription assay: 2301*
0.20 μM conc.
  average luciferase values from transcription assay: 3459*
0.51 μM conc.
  average luciferase values from transcription assay: 3828*
1.3 μM conc.
  average luciferase values from transcription assay: 3729*
3.2 μM conc.
  average luciferase values from transcription assay: 3941*
8 μM conc.
  average luciferase values from transcription assay: 4621*
20 μM conc.
  average luciferase values from transcription assay: 5575*
RE Conc. 20 μM
  RE: 5475
